Measurements as given in article PMC8210154, “Tumor-selective, antigen-independent delivery of a pH sensitive peptide-topoisomerase inhibitor conjugate suppresses tumor growth without systemic toxicity” (NAR Cancer, 2021).

Test system: HCT116 xenografts
Assay: HCT116 xenografts in nude mice
Settings: 2.3 mg/kg i.p. QDx4/wk x 3, HCT116 xenograft mice

## CC[C@@]1(O)C(=O)OCc2c1cc1n(c2=O)Cc2c-1nc1cc(F)c(C)c3c1c2[C@@H](N)CC3 [exatecan]
  animals euthanized before completion because of severe morbidity due to drug toxicity: 50%
